Source: patent US20090301508A1, “Cosmetic Composition and Preparation Method and Use Thereof” (priority 2006, published 2009)
Where two headings read alike, the source gives them in different places.

Test system: TA98
Conditions: TA98 −S9, positive control 200 μg/dish
Experimental: 4.3 Sample processing and preparation: 4000 mg sample was weighted and distilled water was added into the sample to 20 ml, then the mixture was blended to obtain a 200 mg/ml of solution. 3, 1, 0.3 and 0.1 mL of this solution were taken, respectively and each was added with sterile distilled water to 10 ml to obtain a solution in the concentration of 60 mg/ml, 20 mg/ml, 6 mg/ml and 2 mg/ml, respectively.
4.4 Test doses: 0.2 mg/dish, 0.6 mg/dish, 2 mg/dish, 6 mg/dish and 20 mg/dish
4.7 Test strains: TA97, TA98, TA100 and TA102, with qualitied biological characters, provided by Biochemistry Dept., California University, CA, America. The concentration of the bacteria liquid used for the test was 1-2×10^9/ml.
A healthy adult SD rat with a body weight of about 150 g was selected. Polychlorinatedbiphenyl was dissolved into corn oil to obtain a solution of 200 mg/ml. The above solution was injected (i.p.), in a sterile operation, into the rat in a dose of 500 mg/kg. 5 days later, the animal was sacrificed via decapitation. The liver was taken out and weighted, then rinsed several times with 0.15 mol/L of fresh cooled solution of potassium chloride. The amount of the potassium chloride solution was 3 ml/g liver (wet weight). The beaker in which the rinsed liver put was removed into an ice bath, and the liver was cut into pieces with a pair of sterilized scissors. […]

Q: What does the source list for p-nitroquinoline?
A: Re-established colonies (first test): 1108 ± 73 colonies/sish; Re-established colonies (second test): 868 ± 60 colonies/sish
